# Experimental data: PubChem BioAssay AID2592 (National Center for Advancing Translational Sciences (NCATS), 2010)
# Protein sequences, listed by entry. Tags and fused reporters are not part of them. Lines headed by an entry give the natural chain unless they say otherwise; changes in a name come on top.
# UniProt P04062: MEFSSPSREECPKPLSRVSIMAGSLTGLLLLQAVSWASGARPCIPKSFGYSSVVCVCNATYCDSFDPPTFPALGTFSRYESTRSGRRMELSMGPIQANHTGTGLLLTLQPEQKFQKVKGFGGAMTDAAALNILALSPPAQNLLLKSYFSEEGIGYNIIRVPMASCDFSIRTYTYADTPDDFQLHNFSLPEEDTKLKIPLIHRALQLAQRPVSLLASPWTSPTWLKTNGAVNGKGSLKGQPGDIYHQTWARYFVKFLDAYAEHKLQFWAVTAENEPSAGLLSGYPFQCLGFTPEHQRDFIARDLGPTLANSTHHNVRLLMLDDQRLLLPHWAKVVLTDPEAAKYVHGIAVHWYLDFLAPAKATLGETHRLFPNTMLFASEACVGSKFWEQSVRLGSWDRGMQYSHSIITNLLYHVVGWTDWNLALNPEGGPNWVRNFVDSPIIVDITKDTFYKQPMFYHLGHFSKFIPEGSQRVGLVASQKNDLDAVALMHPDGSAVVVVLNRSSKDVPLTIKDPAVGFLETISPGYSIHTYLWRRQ
# The entries are a selection whose mix differs from that of the whole data set. Records with an inconclusive call do not appear. Calls of active or inactive are those of the source. Calls come from the whole dose curve; as a rule, active = well fitted inhibition curve with a large enough effect; inconclusive = small, poorly fitted or top-dose-only effect, or effect the other way; inactive = flat fitted curve, though single readings scatter.
# Molecular target: Lysosomal acid glucosylceramidase (Homo sapiens) (UniProt P04062)
# Assay: qHTS Assay for Inhibitors and Activators of N370S glucocerebrosidase as a Potential Chaperone Treatment of Gaucher Disease: Activity in Non-Mutant Spleen Homogenate
# Settings: human spleen homogenate GC, 4MU-glucoside fluorescence
# From the text: NIH Chemical Genomics Center [NCGC] NIH Molecular Libraries Probe Production Centers Network [MLPCN] MLPCN Grant: MH086442-01 Assay Submitter (PI): Wei Zheng Glucocerebrosidase (GC) catalyzes the hydrolysis of beta-glucocerebroside to glucose and ceramide in lysosomes. Mutations in the glucocerebrosidase gene result in Gaucher disease, an autosomal recessive lysosomal storage disorder. Many of the mutations encountered in patients with Gaucher disease are missense alterations that may cause misfolding, decreased stability and/or mistrafficking of this lysosomal protein. […]
# NCGC Assay Protocol Summary: This is a fluorogenic enzyme assay with 4-methylumbelliferyl-beta-D-glucopyranoside as the substrate and wildtype glucocerebrosidase from human spleen homogenate as the enzyme preparation. Upon the hydrolysis of this fluorogenic substrate, the resulting product, […] which can be detected by a standard fluorescence plate reader. […] The AC50 values were determined from concentration-response data modeled with the standard Hill equation. […] (5) Add 2 ul stop solution (1M NaOH and 1M Glycine mixture, pH 10) (6) Detect the assay plate in a ViewLux plate reader (PerkinElmer) with Ex=365 nm and Em=440nm. […]
row,SMILES,Potency
1,COc1ccc(Cl)cc1Nc1nc(NCCO)nc(N2CCCC2)n1,active: 7.94 µM
